Broadly, the inhibition is the relative decrease from the control value, in per cent.

SMILES strings stand for the structures. The list shows a part of the results, in another mix than the full data. The source made the active and inactive calls.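 How the source made its calls: active means mean replicate inhibition of at least 30% and at least 1% of replicates passing that level; inconclusive means only one of the two criteria is met; inactive means neither criterion is met.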

This test deals with Voltage-dependent L-type calcium channel subunit alpha-1D (CaV1.3) ICDI/IQ interaction. In words: Primary screen for inhibitors of IQ motif and Ca2+-dependent inactivation inhibitor domain binding in CACNA1D, Förster resonance energy transfer in living cells, single-concentration test (AID 743397).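 Further: 0% = median of the neutral control wells.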 The conditions noted are these: HEK cells, CFP/YFP FRET ICDI-IQ, plate reader, 10 min; at 12.3 µM; stronger effect = higher value; percent FRET-ratio fall versus neutral wells.
In the case of `Cc1ccccc1CN(C)C(=O)COC(=O)C(O)(c1ccccc1)c1ccccc1`, the inhibition was inactive: -15.6%. Consider `C[C@@H]1C=CCP(=O)(Oc2ccccc2)O1` (stereo partly drawn), for which the inhibition is inactive: -5.66%. `C[C@H]1OP(=O)(Oc2ccccc2)C[C@@H]2O[C@@H]21` (stereo partly drawn): the inhibition is inactive: -10.3%. The value for `N#C/C(=C\c1ccc(N(CCBr)CCBr)cc1)C(N)=O` was inactive: -7.2%; that for `CC(=O)c1ccc(N2CC2c2ccncc2)cc1` (stereo not drawn) was inactive: -6.1%.

For `COC(=O)C1(C)COP(=O)(NCc2ccccc2)OC1` (stereo not drawn), the inhibition is inactive: -6.67%.

For the compound `CC(=O)Nc1ccc([As](=O)(O)O)c(O)c1`, the inhibition is inactive: 3.26%.

On to `CC(=O)Nc1ccc(Oc2c([N+](=O)[O-])cc([N+](=O)[O-])cc2[N+](=O)[O-])cc1`, for which the inhibition is inactive: -19.5%. Regarding `O=P1(Nc2nc3ccc(Cl)cc3s2)COc2ccccc2O1` (stereo not drawn), the inhibition is inactive: -8.76%.

In the case of `CCOc1ccc(C2=NCC(CBr)S2)cc1` (stereo not drawn), the inhibition is inactive: -3.96%. Next, `CC(C)(C)C(=O)NC(Sc1ccccc1)C(Cl)(Cl)Cl` (stereo not drawn): inactive: -6.6%; `CCc1cc(O)c([N+](=O)[O-])c(C)c1[N+](=O)[O-]`: inactive: -6.13%; `O=C(OC1CN2CCC1CC2)c1ccccc1` (stereo not drawn): inactive: -4.56%. `CC(=O)NC(SC(=S)N(CC(C)C)CC(C)C)C(Cl)(Cl)Cl` (stereo not drawn): the inhibition was inactive: -6.03%. Next, `Cc1ccc(OP(=O)(Nc2ccccn2)Oc2ccc(C)cc2)cc1`: inactive: -3.97%; `Cc1ccccc1OP(=O)(Nc1ccccn1)Oc1ccccc1C`: inactive: -4.55%. Turning to `CC(NC(=O)COC(=O)C(O)(c1ccccc1)c1ccccc1)c1ccccc1` (stereo not drawn), the inhibition is inactive: -4.74%. Next, `CN(C)C(=O)Oc1noc2ccccc12`: inactive: -2.07%; `O=c1c2cc([N+](=O)[O-])ccc2[nH]c2c([N+](=O)[O-])cc([N+](=O)[O-])cc12`: inactive: -1.52%; `c1ccc(-c2nn[nH]n2)c(-c2nn[nH]n2)c1`: inactive: -12.7%.

In the case of `Cc1ccc(NP(=O)(Oc2cccc(C)c2)Oc2cccc(C)c2)nc1`, the inhibition is inactive: -3.7%.

Consider `O=C(NC1CCS(=O)(=O)C1)NP(=S)(Oc1ccccc1)Oc1ccccc1` (stereo not drawn), for which the inhibition was inactive: -4.35%.

Turning to `CCNC(=S)/N=C(\N)N[N+](=O)[O-]`, the inhibition is inactive: -5.04%.

On to `O=P1(N(CCCl)CCCl)OCCC2CCCCN21` (stereo not drawn), for which the inhibition was inactive: -13.8%. Next, `O=[As](O)(c1ccccc1)c1ccc(O)cc1`: inactive: -15.3%; `CC(=O)NC(SC(=S)N(C)C)C(Cl)(Cl)Cl` (stereo not drawn): inactive: -2.35%; `O=[N+]([O-])c1ncn(CCn2cnc([N+](=O)[O-])n2)n1`: inactive: -1.85%. The value for `O=C(OC1CN2CCC1CC2)c1cccc(Cl)c1` (stereo not drawn) was inactive: -5.72%.

Source of the values: PubChem BioAssay AID743397 (Broad Institute, 2014).
